Experimental data reported in US20250108038A1 (priority 2023, published 2025).

Assays:
OAT3 = target: T1, OAT3 (Homo sapiens, UniProt Q8TCC7); test: Uptake transporter inhibition assay, OAT3 (estrone-3-sulfate); settings: 500.00 μM, reference inhibitor
T1 sequence (Q8TCC7 1-542): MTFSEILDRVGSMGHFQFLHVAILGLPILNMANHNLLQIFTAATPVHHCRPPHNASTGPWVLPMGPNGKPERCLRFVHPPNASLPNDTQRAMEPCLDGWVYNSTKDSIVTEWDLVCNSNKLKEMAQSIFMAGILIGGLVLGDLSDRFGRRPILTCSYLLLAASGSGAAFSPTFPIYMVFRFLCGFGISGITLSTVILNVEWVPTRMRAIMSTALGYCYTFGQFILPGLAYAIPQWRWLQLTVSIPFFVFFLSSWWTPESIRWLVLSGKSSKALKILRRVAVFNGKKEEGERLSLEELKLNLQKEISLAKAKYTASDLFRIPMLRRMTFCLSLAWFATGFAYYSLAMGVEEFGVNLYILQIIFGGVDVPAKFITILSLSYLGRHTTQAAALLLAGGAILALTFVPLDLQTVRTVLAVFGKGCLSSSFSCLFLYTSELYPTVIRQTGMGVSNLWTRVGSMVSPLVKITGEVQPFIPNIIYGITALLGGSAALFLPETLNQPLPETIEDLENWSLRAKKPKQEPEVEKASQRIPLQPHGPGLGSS

[1] = Metabolic stability in human intestinal homogenate; format: in vitro ADME; settings: positive controls, 1 μM

SMILES | Relative transporter specific accumulation (OAT3) | Time [1] [min]
CCCN(CCC)S(=O)(=O)c1ccc(C(=O)O)cc1 [Probenecid] | 2.64 ± 0.09 % of control | –
O=c1ccc2ccc(O)cc2o1 [7-hydroxycoumarin, reference compound] | – | 91.1
